Data on 1 substance can be found in article PMC12525650, “Pharmacokinetic Profile of Extracts from the Chayote (Sechium edule) H387 07 Hybrid and Phytochemical Characterization of Its Segregant H387 M16 for Potential Therapeutic Applications” (Molecules, 2025).

Read-outs that look alike come from different tables or passages of the source.

A short description of series [1]: HPLC pharmacokinetics of secondary metabolites in serum/plasma, liver and urine of mice after oral Sechium H387 07 extract. It counts as in vivo, female CD-1 mice (Mus musculus L.). The procedure:
Pharmacokinetic parameters were evaluated in female CD-1 mice (Mus musculus L.) provided by the vivarium of the Faculty of Higher Studies, Zaragoza, National Autonomous University of Mexico. All mice were clinically healthy, approximately 12 weeks old, and weighed ~30 g. […] Female mice were selected as the available cohort from the institutional vivarium, and their use allowed us to establish baseline pharmacokinetic parameters under standardized conditions. […] Animals were randomly assigned to treatment groups. Treatment allocation and sample collection were blinded. All experimental procedures were approved by the Research Ethics Committee of the Faculty of Higher Studies, Zaragoza (FESZ/CEI/1/1/5/27/23).
For the HPLC quantification of metabolites, concentrations were expressed as µg/mL for serum and urine and as µg/mg of tissue for liver samples. The results were translated into graphical form using the identified metabolites. The Cmax and time to reach maximum concentration (Tmax) of the secondary metabolites were obtained directly from the concentration–time curve.
The area under the plasma concentration–time curve from time zero to the last measurable concentration ( AUC0−t ) was calculated using the linear trapezoidal rule, according to the following formula: AUC0−t=∑i=1n−1Ci+Ci+1/2×ti+1−ti where Ci and Ci+1 are the plasma concentrations at consecutive time points ti and ti+1 . The total area under the curve ( AUC0−∞ ) was obtained as the sum of AUC0−t and the extrapolated area from the last measurable concentration to infinity, calculated as:(1) AUC0−∞=AUC0−t+Clast/kel where Clast is the final observed concentration and kel is the terminal final elimination constant estimated from the slope of the log-linear portion of the concentration–time curve.

For series [2] the following is noted: cited from earlier work.
For series [3] the following is noted: cited from earlier work; for Cmax: rats, oral CuB from Trichosanthes cucumerina.

For the substance cucurbitacin B, in series [1] (plasma, oral Sechium H387 07 extract 125 mg/kg, listed as CuB), the Cmax stood at 37560 ng/mL. Also, in series [1] (plasma, oral extract 125 mg/kg), the “AUC0−t” value was found to be 1.87 ± 0.13 μg⋅h/mL, the Clearance is 11.7 mL/min/kg, the T1/2 is recorded as 7.2 ± 1.1 h and the Vd came to 5.0 L/kg. Also, the Tmax in series [1] (plasma, oral extract 125 mg/kg, Table S1, unit not given) is 1 ± 0.2. In addition, the “serum concentration, change with dose and time” value in series [1] (serum, oral extract 8, 125, 250 mg/kg, 1, 6, 24, 48 h) is recorded as “After an initial decline at 6 h, a secondary rise was observed at 24–48 h”. Besides, in series [2] (8 mg/kg, ref other studies), the Cmax was 0.0341 ng/mL and the Tmax entry is listed as “up to 3 h”. Also, in series [2] (after a dose of 1 mg/kg), the “concentration in systemic circulation” value is 34 ng/mL. The CuB concentration recorded entry in series [3] (Trichosanthes cucumerina extracts) is given as “up to 0.031 µg/mL”. For the same substance, in series [3] (2 mg/kg), the Cmax was 9.7 ng/mL. Also, the maximum concentration (Cmax) in series [3] (4 mg/kg) is 31.2 ng/mL.
